Results on five molecules are retold here after patent publication US20140100172A1 (MALLINCKRODT, published 2014).

Amino acid sequences for entries named in this document (tags omitted).
UniProt P61073, whole entry: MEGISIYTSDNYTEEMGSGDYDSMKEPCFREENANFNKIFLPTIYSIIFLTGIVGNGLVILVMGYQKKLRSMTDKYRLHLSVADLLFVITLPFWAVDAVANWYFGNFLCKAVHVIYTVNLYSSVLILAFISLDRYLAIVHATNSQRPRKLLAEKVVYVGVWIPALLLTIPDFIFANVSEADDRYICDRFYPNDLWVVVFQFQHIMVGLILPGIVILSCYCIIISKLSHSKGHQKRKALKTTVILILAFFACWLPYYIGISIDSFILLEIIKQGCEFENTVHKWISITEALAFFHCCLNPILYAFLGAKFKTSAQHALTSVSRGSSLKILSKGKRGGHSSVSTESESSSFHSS

Assay in all cases: competition with 125I-CPCR4 tracer on CXCR4-expressing cells
For experiment [1], the target named is T1, human chemokine receptor type 4 (CXCR4) (human, UniProt P61073 1-352).
T1 construct: whole, on cells; also called CXCR4 receptor; CXCR4 chemokine receptor

For experiment [2], the target named is T1, human chemokine receptor type 4 (CXCR4). The source holds these as a separate data set.
Experiment [3] has the same target. This is another data set of the same source.

Like-named read-outs stand apart in the source and are kept apart here.

A word on the IC50: it is the concentration that inhibits the measured activity by half. In turn, YRRXG (cyclic; (Me)D-Tyr1; Nal4, also called OD9) [cyc[(Me)D-Tyr-Arg-Arg-Nal-Gly]] registered an IC50 in experiment [1] of 247 nM.

Molecule YRRXG (cyclic; D-Tyr1; (Me)Nal4, also called OD5) [cyc[D-Tyr-Arg-Arg-(Me)Nal-Gly]] came in with a half-inhibitory concentration (IC50) in experiment [1] of 894 nM.

For YRRXG (cyclic; D-Tyr1; Nal4; (Me)Gly5, also called OD7) [cyc[D-Tyr-Arg-Arg-Nal-(Me)Gly]], the IC50 in experiment [1] was 136 nM.

Turning to YRRXAA (cyclic; D-Tyr1; Nal4, also called BL158) [cyc[D-Tyr-Arg-Arg-Nal-Ala-Ala]], the IC50 in experiment [2] turned out to be 114 nM.

For YFRXG (cyclic; D-Tyr1; Nal4) [cyc[D-Tyr-Phe-Arg-Nal-Gly]], in experiment [3], the IC50 came to 154 nM.
